Active and inactive are the calls of the source. The rule behind the calls is not given here. A value given as a limit tells only on which side of the number the result lay.

Chains of the proteins cited; added tags and fusions are not shown. Lines headed by an entry give the natural chain unless they say otherwise; changes in a name come on top.
UniProt P22303: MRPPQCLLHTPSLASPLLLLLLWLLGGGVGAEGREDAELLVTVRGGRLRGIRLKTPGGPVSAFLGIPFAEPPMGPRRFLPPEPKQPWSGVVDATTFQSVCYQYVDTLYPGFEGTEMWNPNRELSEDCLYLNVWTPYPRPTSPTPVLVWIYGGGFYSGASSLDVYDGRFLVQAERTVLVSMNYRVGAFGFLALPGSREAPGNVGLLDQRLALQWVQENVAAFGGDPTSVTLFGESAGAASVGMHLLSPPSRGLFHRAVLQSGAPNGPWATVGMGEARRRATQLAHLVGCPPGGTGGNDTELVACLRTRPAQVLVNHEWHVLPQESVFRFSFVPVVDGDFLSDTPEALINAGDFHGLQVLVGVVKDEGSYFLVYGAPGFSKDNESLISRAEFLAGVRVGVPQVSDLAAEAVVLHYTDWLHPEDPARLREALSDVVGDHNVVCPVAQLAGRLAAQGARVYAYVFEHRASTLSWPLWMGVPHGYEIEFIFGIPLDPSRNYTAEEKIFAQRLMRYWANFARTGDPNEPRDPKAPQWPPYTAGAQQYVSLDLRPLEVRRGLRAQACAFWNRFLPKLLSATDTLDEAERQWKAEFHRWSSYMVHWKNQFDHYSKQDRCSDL

The results in this text go back to ChEMBL document CHEMBL1641540, “Peripheral site ligand-oxime conjugates: A novel concept towards reactivation of nerve agent-inhibited human acetylcholinesterase” (2011).

Assay [1] concerns the target Acetylcholinesterase (Homo sapiens) (UniProt P22303). Description: Reactivation of tabun-inhibited human AChE assessed as active enzyme at 10^-5 M after 30 mins by Ellman method. Also noted: scale not given: the % may be the effect or the level left. (Ellman's reagent forms a yellow product with free thiols.)
For assay [2] the target is unchanged. The experiment in a line: Reactivation of sarin-inhibited human AChE assessed as active enzyme at 10^-5 M after 30 mins by Ellman method. More on the design: scale not given: the % may be the effect or the level left.
The target is the same in assay [3]. The experiment in a line: Reactivation of nerve agent VX-inhibited human AChE assessed as active enzyme at 10^-5 M after 30 mins by Ellman method.

As for `O/N=C/c1cc[n+](CCOCCCl)cc1`, the Activity in assay [1] was less than 5%.

Regarding `O/N=C/c1cc[n+](CCOCCOCCOCCN2CCC(OC(c3ccccc3)c3ccccc3)CC2)cc1`, the Activity is less than 5% in assay [1] and 36% in assay [2]. Also, the outcome in assay [3] was Active.

Consider `O/N=C/c1cc[n+](CCOCCOCCCl)cc1`, for which, in assay [1], the Activity is less than 5%.

With `O/N=C/c1cc[n+](CCOCCOCCN2CCC(OC(c3ccccc3)c3ccccc3)CC2)cc1`, the results for the Activity in assay [1] and in assay [2] were less than 5% and 23%, respectively. In assay [3], the outcome was Active.

For `O/N=C/c1cc[n+](CCOCCOCCOCCCl)cc1`, the Activity in assay [1] is less than 5%.

Regarding `O/N=C/c1cc[n+](CCOCCN2CCC(OC(c3ccccc3)c3ccccc3)CC2)cc1`, the Activity in assay [1] was less than 5%; in assay [2], 22%. For the same compound, in assay [3], the outcome was Active.
